Tested on: mice
Assay: Motor deficit testing, inverted screen test after injection
Settings: mice after hind limb injection

## CCN(CC)CC(=O)Nc1c(C)cccc1C [lidocaine, reference compound]
  motor block (number of experiments with motor block): nearly all the lidocaine experiments showed motor block

Reference: patent publication US10202406B2, “Boron cluster compounds and uses thereof” (priority 2011, dated 2019)
